Source: PMC7401273, “Unexpected Enhancement of HDACs Inhibition by MeS Substitution at C-2 Position of Fluoro Largazole” (Marine Drugs, 2020)

Molecular target: T1, recombinant human HDAC8 (Homo sapiens, UniProt Q9BY41)
T1 construct: purchased BPS Biosciences
T1 sequence (Q9BY41 1-377): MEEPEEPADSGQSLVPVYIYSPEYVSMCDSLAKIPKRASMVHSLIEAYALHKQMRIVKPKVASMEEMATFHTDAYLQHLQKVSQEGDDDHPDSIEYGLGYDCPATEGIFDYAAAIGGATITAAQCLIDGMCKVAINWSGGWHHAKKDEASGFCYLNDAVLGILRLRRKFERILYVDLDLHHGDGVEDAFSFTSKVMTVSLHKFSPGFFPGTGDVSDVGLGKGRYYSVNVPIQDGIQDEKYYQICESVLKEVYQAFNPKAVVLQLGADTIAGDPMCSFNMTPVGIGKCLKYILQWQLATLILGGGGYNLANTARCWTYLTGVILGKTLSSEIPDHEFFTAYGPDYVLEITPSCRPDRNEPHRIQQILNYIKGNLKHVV
Experiment: recombinant human HDAC8 enzymatic assay
Type: biochemical
Details: 10-dose IC50 mode in duplicate, three-fold serial dilution
Protocol: The assays were carried out by Shanghai ChemPartner Co., Ltd (Shanghai, China), according to our previous method. Briefly, different concentrations of compounds were incubated with recombinant human HDAC1, HDAC2, HDAC3, HDAC6 and HDAC8 (BPS Biosciences, San Diego, CA, USA) at room temperature for 15 min, which was followed by adding Ac-peptide-AMC substrates to initiate the reaction in Tris-based assay buffer. Reaction mixtures were incubated at room temperature for 60 min in HDAC1, HDAC2, HDAC3 and HDAC6 assays, and were incubated for 240 min in HDAC8 assay. Then, the stop solution containing trypsin was added. The coupled reaction was incubated for another 90 min at 37 °C. Fluorescent AMC released from substrate was measured in SynergyMx (BioTek, Winooski, VT, US) using filter sets as excitation = 355 nm and emission = 460 nm. IC50 values were calculated by GraphPad Prism software (7.0 version., GraphPad Software, San Diego, CA, USA).

largazole thiol [reference compound] showed an IC50 of 3.75 ± 0.2 nM.
